Values quoted from earlier work as cited in patent publication US20100075926A1, “ACTIVATION OF HISTONE DEACETYLASE 1 (HDAC1) PROTECTS AGAINST DNA DAMAGE AND INCREASES NEURONAL SURVIVAL” (priority 2008, published 2010).

Amino acid sequences for entries named in this document (tags omitted).
UniProt Q13547, whole entry: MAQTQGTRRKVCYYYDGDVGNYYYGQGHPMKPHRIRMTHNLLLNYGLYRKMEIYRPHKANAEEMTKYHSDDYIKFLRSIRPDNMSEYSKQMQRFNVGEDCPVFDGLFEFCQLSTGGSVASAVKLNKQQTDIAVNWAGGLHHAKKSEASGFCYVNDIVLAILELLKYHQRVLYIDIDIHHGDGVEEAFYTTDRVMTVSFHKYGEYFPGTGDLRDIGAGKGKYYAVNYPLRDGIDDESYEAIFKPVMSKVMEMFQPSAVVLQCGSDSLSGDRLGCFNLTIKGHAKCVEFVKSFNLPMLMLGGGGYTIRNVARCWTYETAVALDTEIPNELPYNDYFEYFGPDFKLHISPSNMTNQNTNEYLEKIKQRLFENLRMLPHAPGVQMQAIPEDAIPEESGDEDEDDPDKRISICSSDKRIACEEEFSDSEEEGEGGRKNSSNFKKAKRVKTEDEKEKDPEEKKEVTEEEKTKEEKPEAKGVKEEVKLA
UniProt Q9BY41, whole entry, species assumed: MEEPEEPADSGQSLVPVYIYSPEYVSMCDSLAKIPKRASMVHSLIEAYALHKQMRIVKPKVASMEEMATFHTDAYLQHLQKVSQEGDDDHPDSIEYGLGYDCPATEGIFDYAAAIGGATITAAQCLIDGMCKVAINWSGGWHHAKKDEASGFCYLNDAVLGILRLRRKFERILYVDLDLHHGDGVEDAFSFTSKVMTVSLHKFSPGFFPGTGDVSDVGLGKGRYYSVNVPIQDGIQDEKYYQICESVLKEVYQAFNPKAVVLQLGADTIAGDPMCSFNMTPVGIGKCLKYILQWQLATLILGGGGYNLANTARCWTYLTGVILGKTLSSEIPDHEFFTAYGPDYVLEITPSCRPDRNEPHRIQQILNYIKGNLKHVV

What was measured:
HDAC1 = HDAC1 (Homo sapiens, UniProt Q13547); conditions: 1 μM; cited from earlier work
HDAC8 = HDAC8 (Homo sapiens, UniProt Q9BY41); conditions: 1 μM; cited from earlier work

## Nc1ccccc1NC(=O)c1ccc(CNC(=O)OCc2cccnc2)cc1 [MS-275]
HDAC1
  inhibition of HDAC1 activity: over 70%
HDAC8
  effects on HDAC8: negligible effects
